Assay results published in PubChem BioAssay AID651710 (Broad Institute, 2012).
This is a selection; strong and weak results do not stand in their true shares. Some results for these compounds are left out of this collection, so the calls shown say nothing about other tests. The source made the active and inactive calls.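 The calls were made as follows: active = every replicate showing at least 50% inhibition; inconclusive = mean inhibition at least 50% but not in every replicate; inactive = the rest.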

Sequences of proteins named here, by UniProt entry; tags and fusion partners are left off.
UniProt P43351, whole entry: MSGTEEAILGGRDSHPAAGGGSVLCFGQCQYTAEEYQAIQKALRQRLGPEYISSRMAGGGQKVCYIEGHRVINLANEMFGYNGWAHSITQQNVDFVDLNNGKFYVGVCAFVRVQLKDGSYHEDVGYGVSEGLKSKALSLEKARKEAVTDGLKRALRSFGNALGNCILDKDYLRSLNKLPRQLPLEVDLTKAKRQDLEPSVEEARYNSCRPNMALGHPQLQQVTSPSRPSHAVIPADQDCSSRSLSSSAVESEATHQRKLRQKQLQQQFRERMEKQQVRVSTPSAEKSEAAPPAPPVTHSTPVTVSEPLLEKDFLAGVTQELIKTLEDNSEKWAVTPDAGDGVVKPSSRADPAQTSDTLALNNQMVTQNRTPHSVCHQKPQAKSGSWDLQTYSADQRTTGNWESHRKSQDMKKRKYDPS

target: DNA repair protein RAD52 homolog (Homo sapiens) (UniProt P43351); test: blockers of RAD52 strand annealing activity – biochemical, FRET, single point, set 2, primary screen (AID 651710); conditions: recombinant RAD52 DNA annealing, FRET fluorescence; at 18.7 µM; hits give high values

Row | Structure (SMILES) | inhibition
1 | O=C(OCCN1CCCC1)C(O)(c1ccccc1)c1ccccc1 | inactive: -32.7%
2 | CC(C)Oc1ccc(C(=O)NCC2(N(C)C)CCCCC2)cc1 | inactive: -11.2%
3 | COc1ccc(Br)c(C(=O)NCC2(N3CCCCC3)CCCCC2)c1 | inactive: -25.3%
4 | C=C(C)C#CC(O)(C(=O)OC1CCN(C)CC1)c1ccccc1 (configuration not stated) | inactive: -3.08%
5 | COc1cc(C(=O)NCC2(N(C)C)CCCCC2)c([N+](=O)[O-])cc1OC | inactive: -15%
6 | CN(C)C1(CNC(=O)c2ccc(Br)cc2)CCCCC1 | inactive: -6.27%
7 | O=C(NCC1(N2CCCCC2)CCCCC1)c1cccc(Cl)c1 | inactive: -25.1%
8 | COc1ccc(Cl)cc1C(=O)NCC1(N(C)C)CCCCC1 | inactive: 4.43%
9 | COc1cccc(C(=O)NCC2(N3CCCCC3)CCCCC2)c1 | inactive: -23.8%
10 | CN(C)c1ccc(C(=O)NCC2(N(C)C)CCCCC2)cc1 | inactive: -1.06%
11 | CN(C)C1CCCC1OC(=O)C(O)(c1ccccc1)c1ccccc1 (configuration not stated) | inactive: 3.47%
12 | Cc1ccccc1C(=O)NCC1(N2CCCCC2)CCCCC1 | inactive: -0.678%
13 | O=C(NCC1(N2CCCCC2)CCCCC1)c1cccc(Br)c1 | inactive: -15.2%
14 | Cc1cc(C(=O)NCC2(N3CCCCC3)CCCCC2)ccc1[N+](=O)[O-] | inactive: 5.43%
15 | COc1ccc(C(=O)NCC2(N(C)C)CCCCC2)cc1 | inactive: -14.7%
16 | O=C(NCC1(N2CCCCC2)CCCCC1)c1cc(F)c(F)cc1Cl | inactive: -29.6%
17 | C=CCN1CCN(CCOC(=O)C(O)(c2ccccc2)c2ccccc2)CC1 | inactive: -8.38%
18 | CN1[C@@H]2CC[C@H]1CC(OC(=O)C(O)(c1ccccc1)c1ccccc1)C2 (some centres not stated) | inactive: -10.6%
19 | O=C(NCC1(N2CCCCC2)CCCCC1)c1cc([N+](=O)[O-])ccc1Cl | inactive: -7.83%
20 | Cc1ccc(C(=O)NCC2(N3CCCCC3)CCCCC2)cc1 | inactive: -13.5%
21 | COc1cc(SC)ccc1C(=O)NCC1(N(C)C)CCCCC1 | inactive: -13.4%
22 | CCN(CC)CC(C)C(C)OC(=O)C(O)(c1ccccc1)c1ccccc1 (configuration not stated) | inactive: -16.8%
